Tested on: Karpas 1106p cells
Test: Cytotoxicity (LD50) against Karpas lymphoma cells
Assay type: cell-based, human
Details: Table 3
Procedure: Table 3 lists the inhibition kinetic parameters, selectivity index, and calculated log Ps of selected dipeptides. Hill slopes of all compounds were <1.0 (FIG. 5A). […] Their cytotoxicity against the Karpas lymphoma cells was determined (Table 4). The LD50s (Table 4) correlated with the IC50s for c-20S inhibition, as the LD50s were equal to or slightly higher than the IC50s for c-20S inhibition (FIG. 6).

COC[C@H](NC(=O)[C@H](CCC(=O)NC(C)(C)C)NC(=O)CCc1ccccc1)C(=O)NCc1cccc2ccccc12 [DPLG-2243]
LD50: 0.062 µM

Cc1ccc(S(=O)(=O)N[C@@H](CCC(=O)NC(C)(C)C)C(=O)N[C@@H](C)C(=O)NCc2cccc3ccccc23)cc1 [DPLG-2256]
LD50: 0.034 µM

C[C@H](NC(=O)[C@H](CCC(=O)NC(C)(C)C)NC(=O)CCc1ccccc1)C(=O)NCc1cccc2ccccc12 [DPLG-2255]
LD50: 0.028 µM

Cc1nc(C(=O)N[C@@H](CC(=O)NOC(C)(C)C)C(=O)N[C@@H](C)C(=O)NCc2cccc3ccccc23)cs1 [DPLG-2102, (S)—N4-(tert-butoxy)-2-(2-methylthiazole-4-carboxamido)-N1-((S)-1-((naphthalen-1-ylmethyl)amino)-1-oxopropan-2-yl) succinamide]
LD50: 42 µM

Cc1cc(C(=O)N[C@@H](CC(=O)NOC(C)(C)C)C(=O)N[C@@H](C)C(=O)NCc2cccc3ccccc23)no1 [DPLG-2105, (S)—N4-(tert-butoxy)-2-(5-methylisoxazole-3-carboxamido)-N1-((S)-1-((naphthalen-1-ylmethyl)amino)-1-oxopropan-2-yl)succinamide]
LD50: 18 µM

C[C@H](NC(=O)[C@H](CC(=O)NOC(C)(C)C)NC(=O)CN1CCOCC1)C(=O)NCc1cccc2ccccc12 [DPLG-2099, (S)—N4-(tert-butoxy)-2-(2-morpholinoacetamido)-N1-((S)-1-((naphthalen-1-ylmethyl)amino)-1-oxopropan-2-yl)succinamide]
LD50: >100 µM

From patent publication USRE49816E1, “Dipeptides as inhibitors of human immunoproteasomes” (CORNELL UNIVERSITY, priority 2014, dated 2024)
